Laboratory results published in ChEMBL document CHEMBL1156083, “N,N-Diethyl-4-[(3-hydroxyphenyl)(piperidin-4-yl)amino] benzamide derivatives: the development of diaryl amino piperidines as potent delta opioid receptor agonists with in vivo anti-nociceptive activity in rodent models” (Bioorg Med Chem Lett, 2009).

Chains of the proteins cited; added tags and fusions are not shown.
UniProt P41143, whole entry: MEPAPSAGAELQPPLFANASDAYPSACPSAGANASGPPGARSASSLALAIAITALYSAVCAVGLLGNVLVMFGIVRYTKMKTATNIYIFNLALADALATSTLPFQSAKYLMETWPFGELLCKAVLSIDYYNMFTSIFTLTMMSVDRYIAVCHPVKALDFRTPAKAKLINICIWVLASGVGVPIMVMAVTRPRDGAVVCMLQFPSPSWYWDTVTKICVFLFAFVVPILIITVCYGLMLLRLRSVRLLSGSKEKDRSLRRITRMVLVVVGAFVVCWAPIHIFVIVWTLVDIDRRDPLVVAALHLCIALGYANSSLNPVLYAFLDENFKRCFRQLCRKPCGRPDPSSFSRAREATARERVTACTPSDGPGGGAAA
UniProt P35372, whole entry: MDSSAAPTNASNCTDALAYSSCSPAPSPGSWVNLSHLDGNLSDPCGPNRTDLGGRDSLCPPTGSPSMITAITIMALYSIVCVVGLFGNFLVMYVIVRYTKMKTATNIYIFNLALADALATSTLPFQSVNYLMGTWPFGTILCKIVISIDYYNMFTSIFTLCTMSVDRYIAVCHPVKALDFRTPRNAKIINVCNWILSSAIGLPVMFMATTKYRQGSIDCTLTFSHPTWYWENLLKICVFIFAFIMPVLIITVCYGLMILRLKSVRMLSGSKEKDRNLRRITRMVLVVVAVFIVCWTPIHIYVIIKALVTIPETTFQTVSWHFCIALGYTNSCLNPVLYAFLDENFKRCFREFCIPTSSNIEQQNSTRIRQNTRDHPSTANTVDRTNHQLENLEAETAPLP
UniProt P41145, whole entry: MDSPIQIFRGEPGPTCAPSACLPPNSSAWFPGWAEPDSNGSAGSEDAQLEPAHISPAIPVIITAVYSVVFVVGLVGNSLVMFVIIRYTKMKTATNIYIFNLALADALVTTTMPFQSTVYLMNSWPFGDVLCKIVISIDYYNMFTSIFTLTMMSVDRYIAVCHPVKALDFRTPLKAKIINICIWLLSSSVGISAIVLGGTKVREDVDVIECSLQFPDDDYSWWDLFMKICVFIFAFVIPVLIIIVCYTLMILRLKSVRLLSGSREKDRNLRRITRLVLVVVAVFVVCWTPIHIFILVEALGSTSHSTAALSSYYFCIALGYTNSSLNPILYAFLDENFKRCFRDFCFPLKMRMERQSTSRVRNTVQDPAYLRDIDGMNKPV

Key:
[1] = target: T1, Delta-type opioid receptor (Homo sapiens, UniProt P41143); test: Displacement of [125I]-[D-Ala2]deltorphin 2 from human cloned delta opioid receptor
[2] = target: Mu-type opioid receptor (Homo sapiens, UniProt P35372); test: Displacement of [125I]FK33824 from human cloned mu opioid receptor
[3] = target: Kappa-type opioid receptor (Homo sapiens, UniProt P41145); test: Displacement of [125I]D-pro10-dynorphin from human cloned kappa opioid receptor
[4] = target: T1, Delta-type opioid receptor; test: Agonist activity at human delta opioid receptor by [35S]GTPgammaS binding assay
[5] = system: Mus musculus; test: Antinociceptive activity against acetic acid-induced writhing response in iv dosed CD1 mouse after 20 mins
[6] = system: Mus musculus; test: Antinociceptive activity against acetic acid-induced writhing response in CD1 mouse at 25 umol/kg, iv after 20 mins

Structure (SMILES) | Ki [1] [nM] | Ki [2] [nM] | Ki [3] [nM] | EC50 [4] [nM] | ED50 [5] [µmol/kg] | Activity [6] [%]
CCN(CC)C(=O)c1ccc(N(c2cccc(O)c2)C2CCN(CCc3ccccc3)CC2)cc1 | 0.42 | 88 | 744 | 0.56 | 21.5 | 57
CCN(CC)C(=O)c1ccc(N(c2cccc(O)c2)C2CCN(C)CC2)cc1 | 0.99 | 87 | 901 | 25.6 |  | 
CCN(CC)C(=O)c1ccc(N(c2cccc(OC)c2)C2CCN(CCc3ccsc3)CC2)cc1 | 18.2 | 1600 | 2550 |  |  | 
CCN(CC)C(=O)c1ccc(N(c2cccc(O)c2)C2CCN(CCc3ccc(C)cc3)CC2)cc1 | 0.64 | 62 | 726 | 1.14 |  | 
